GIV-Gai inh = inhibitors of GIV peptide binding to Galpha-i3, primary screen, biochemical, fluorescence polarization, FITC-GIV GBA peptide, rat Galphai3 | Guanine nucleotide-binding protein G(i) subunit alpha-3 (Rattus norvegicus), P08753 | 90 min; active compounds read low; scaled: aluminum fluoride 0%, vehicle 100% | 210,000 tested, 0.42% active | AID 1224905, 2016 | percent of control (FP), % (no concentration beside the values);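 active means replicate mean at 85% of control or lower, very high polarization wells dropped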;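 further: wells of about 15 µL received 100 nL stock; the first replicate is given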
HCMV UL50-53 inh = disrupts HCMV UL50-UL53 complex binding; HTRF UL50-UL53 interaction, normalized percent inhibition; inhibition, % (concentration not given with the values); 190,000 compounds, 0.15% hits; in the data active = inhibition above about 27%, passing the limit was not always enough
The depositor's hits bear a star. Most compounds without a hit are left out; they make up all but 0.43% or so of the library.

Chains of the proteins cited; added tags and fusions are not shown.
Guanine nucleotide-binding protein G(i) subunit alpha-3 (Rattus norvegicus), P08753, UniProt P08753, whole entry, looked up: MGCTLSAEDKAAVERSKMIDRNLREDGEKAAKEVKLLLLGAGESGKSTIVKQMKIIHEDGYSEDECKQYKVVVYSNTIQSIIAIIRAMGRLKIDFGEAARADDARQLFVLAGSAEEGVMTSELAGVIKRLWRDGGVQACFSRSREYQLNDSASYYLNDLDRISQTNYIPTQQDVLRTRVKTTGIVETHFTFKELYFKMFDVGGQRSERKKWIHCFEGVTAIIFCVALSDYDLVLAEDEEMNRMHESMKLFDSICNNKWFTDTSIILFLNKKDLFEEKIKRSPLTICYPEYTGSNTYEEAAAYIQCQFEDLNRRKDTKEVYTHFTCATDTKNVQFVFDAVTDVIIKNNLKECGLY

What do the screens show for `CN1CCN(c2ncc3c(n2)CC(c2ccc(Cl)cc2)CC3=O)CC1` (configuration not stated)?
GIV-Gai inh: 108; HCMV UL50-53 inh: 12

Results for OC(c1ccc(Cl)cc1)C(O)c1nc2ccccc2[nH]1 (configuration not stated) ?
HCMV UL50-53 inh: -20

Results for OCC(O)C(O)C(O)C(O)c1nc2ccccc2[nH]1 (configuration not stated) ?
HCMV UL50-53 inh: 37*

What do the screens show for `CC(=O)n1c(O)c(/C=C2\C=c3ccc(C)cc3=NC2=O)sc1=N`?
GIV-Gai inh: 111

Results for CC(=O)n1c(/C=C2\C=c3ccccc3=NC2=O)c(O)[nH]c1=S ?
GIV-Gai inh: 49*; HCMV UL50-53 inh: 15

Results for CC(C)(C)c1ccc(C(=O)N(CCCN2CCCC2=O)CCC(=O)N2CCNCC2)cc1 ?
GIV-Gai inh: 108; HCMV UL50-53 inh: -11

What do the screens show for `N#CCc1c(C#N)c(N)nc(N2CCc3ccccc32)c1C#N`?
HCMV UL50-53 inh: 35*

What do the screens show for `N#CCc1c(C#N)c(N)nc(N2CCN(S(=O)(=O)c3ccccc3)CC2)c1C#N`?
HCMV UL50-53 inh: 22

What do the screens show for `CC(C)NC(=O)CSc1nccn2nc(-c3ccccc3)cc12`?
GIV-Gai inh: 109; HCMV UL50-53 inh: -24

What do the screens show for `Cc1cc2n(n1)CCCN2Cc1ccc(C(=O)Nc2ccc(F)cc2)cc1`?
GIV-Gai inh: 101; HCMV UL50-53 inh: -11

Nothing new here: an excerpt of the list.
Results for CC(=O)n1c(/C=C2\C=c3ccccc3=NC2=O)c(O)[nH]c1=S ?
GIV-Gai inh: 49*; HCMV UL50-53 inh: 15

Results for CC(C)(C)c1ccc(C(=O)N(CCCN2CCCC2=O)CCC(=O)N2CCNCC2)cc1 ?
GIV-Gai inh: 108; HCMV UL50-53 inh: -11

What do the screens show for `N#CCc1c(C#N)c(N)nc(N2CCc3ccccc32)c1C#N`?
HCMV UL50-53 inh: 35*

What do the screens show for `N#CCc1c(C#N)c(N)nc(N2CCN(S(=O)(=O)c3ccccc3)CC2)c1C#N`?
HCMV UL50-53 inh: 22

What do the screens show for `CC(C)NC(=O)CSc1nccn2nc(-c3ccccc3)cc12`?
GIV-Gai inh: 109; HCMV UL50-53 inh: -24

More entries:
What do the screens show for `CN(C)c1ccc(/C=c2/sc3nc(-c4ccc(Cl)cc4)nn3c2=O)cc1`?
GIV-Gai inh: 113

Results for CCN(CC)c1ccc(/C=c2\sc3nc(-c4ccco4)nn3c2=O)cc1 ?
GIV-Gai inh: -83*; HCMV UL50-53 inh: -14

How did CCCCCCCCCCCCCCCCOC[C@H](COP(=O)([O-])OCC[N+](C)(C)C)OC do in these assays?
HCMV UL50-53 inh: -4

Results for CCN1/C(=C/C=C2/C(=O)N(C)C(=S)N2C)Oc2ccccc21 ?
GIV-Gai inh: 252; HCMV UL50-53 inh: -10

Results for CCCN1C(=S)N(CCO)C(=O)/C1=C/C=C1/Oc2ccccc2N1CCC(=O)O ?
GIV-Gai inh: -20*; HCMV UL50-53 inh: -116

Results for CCCc1cc(C2CCCN2C(=O)Nc2ccccc2)no1 (configuration not stated) ?
GIV-Gai inh: 114

How did CCCN1C(=O)/C(=C/c2c(N3CCCC3)nc3ccccn3c2=O)SC1=S do in these assays?
GIV-Gai inh: -60*; HCMV UL50-53 inh: -36

What do the screens show for `Cc1cccn2c(=O)c(/C=C3\SC(=S)N(CCc4ccccc4)C3=O)c(N3CCCC3)nc12`?
GIV-Gai inh: 104; HCMV UL50-53 inh: -9

How did COCCCN1C(=O)/C(=C/c2c(N3CCN(C)CC3)nc3c(C)cccn3c2=O)SC1=S do in these assays?
GIV-Gai inh: 62*; HCMV UL50-53 inh: -45

How did CN1CCN(c2nc3ccccn3c(=O)c2/C=C2\SC(=S)N(Cc3ccco3)C2=O)CC1 do in these assays?
GIV-Gai inh: 162; HCMV UL50-53 inh: -11

What do the screens show for `CCN1C(=O)/C(=C/c2c(N3CCCCC3)nc3ccccn3c2=O)SC1=S`?
GIV-Gai inh: -75*; HCMV UL50-53 inh: 2

How did C=CCN1C(=O)/C(=C/c2c(Sc3ccccc3)nc3ccccn3c2=O)SC1=S do in these assays?
GIV-Gai inh: -36*

How did CCCCN1C(=O)/C(=C/c2c(N3CCN(CCO)CC3)nc3ccccn3c2=O)SC1=S do in these assays?
GIV-Gai inh: 249

What do the screens show for `C=CCN1C(=O)/C(=C\c2cccs2)SC1=S`?
HCMV UL50-53 inh: -16

Results for CC(C)c1ccc(NC(=O)CCn2c(C(F)(F)F)nc3cc(S(=O)(=O)N(C)C)ccc32)cc1 ?
GIV-Gai inh: 108; HCMV UL50-53 inh: -30

What do the screens show for `COc1cc2ncnc(N3CCN(C)CC3)c2cc1OC`?
GIV-Gai inh: 103; HCMV UL50-53 inh: -4

Results for CS(=O)(=O)Nc1ccc(-c2noc(-c3cnccn3)n2)cc1 ?
GIV-Gai inh: 98

What do the screens show for `C=CCN1C(=O)/C(=C/c2c(N3CCCCC3)nc3ccccn3c2=O)SC1=S`?
GIV-Gai inh: -36*

Results for CC1CCN(c2nc3ccccn3c(=O)c2/C=C2/SC(=S)N(C3CCCCC3)C2=O)CC1 ?
GIV-Gai inh: 183

How did CCOC(=O)COc1c(Br)cc(/C=C2\SC(=O)N(C)C2=O)cc1OC do in these assays?
GIV-Gai inh: 103

How did CC(C)c1ccc(-c2cc(-c3nc4c5ccccc5ncn4n3)[nH]n2)cc1 do in these assays?
GIV-Gai inh: 100; HCMV UL50-53 inh: -4

How did Cc1[nH]cnc1CN1CCCCCCC1 do in these assays?
GIV-Gai inh: 101; HCMV UL50-53 inh: -4

What do the screens show for `Cc1[nH]cnc1CN1CCc2c(c3ccccc3n2C)C1=O`?
HCMV UL50-53 inh: 90*

Results for CCN(CC)c1ccc(/C=C(/C#N)C(=O)NC(C)C)o1 ?
GIV-Gai inh: -102*; HCMV UL50-53 inh: -162

What do the screens show for `CCN(CCC#N)c1ccc(/C=C(\C#N)C(=O)NC(C)C)c(C)c1`?
HCMV UL50-53 inh: -77

How did C=Cn1cccc1-c1ccccc1 do in these assays?
GIV-Gai inh: 137; HCMV UL50-53 inh: -19

How did Cc1noc(C)c1C(=O)Nc1ccc2c(c1)C(=O)OC2 do in these assays?
GIV-Gai inh: 97; HCMV UL50-53 inh: -7

Results for CCOC(=O)c1ccc(Cn2c3ccc(F)cc3c3nc4cc(F)ccc4nc32)o1 ?
GIV-Gai inh: 106

What do the screens show for `O=C(CSc1nc2ncccc2n2cccc12)NCCc1ccccc1`?
GIV-Gai inh: 112; HCMV UL50-53 inh: -18

Results for Cc1ccc2[nH]c3c(c2c1)CCc1cn[nH]c1-3 ?
GIV-Gai inh: 99; HCMV UL50-53 inh: -16

How did Cc1ccc2[nH]c3c(c2c1)CCC1C3=NNC1c1ccco1 (configuration not stated) do in these assays?
GIV-Gai inh: -66*

How did Cc1cc(NC(=O)NCCn2c(C(F)(F)F)nc3cccnc32)ccc1Br do in these assays?
GIV-Gai inh: 104; HCMV UL50-53 inh: 2

Results for CCN(CC)S(=O)(=O)c1ccc2c(c1)N(CC(=O)Nc1cccc(Cl)c1C)C(=O)CCS2 ?
GIV-Gai inh: 100; HCMV UL50-53 inh: 10

How did C=Cc1c(C)/c2[n-]/c1=C\c1[n-]c(c(CC)c1C)/C=c1\[n-]c3c(c1C)C(=O)C(C(=O)[O-])C=3c1[n-]c(c(C)c1CCC(=O)[O-])\C=2.[Cu].[Na+].[Na+] (configuration not stated) do in these assays?
HCMV UL50-53 inh: 52*

Results for CC(C)c1ccc2c(c1)c1c3n2CCN(CCC#N)C3CCC1 (configuration not stated) ?
GIV-Gai inh: 112

Results for Cc1cc2nc3c(=O)[nH]c(=O)nc-3n(C[C@@H](O)[C@@H](O)[C@@H](O)COP(=O)(O)O)c2cc1C ?
HCMV UL50-53 inh: -166

What do the screens show for `Cc1cc2nc3c(=O)[nH]c(=O)nc-3n(C(O)C(O)C(O)C(O)CO)c2cc1C` (configuration not stated)?
GIV-Gai inh: -74*; HCMV UL50-53 inh: -132

How did CCC(=O)NC(C)c1nc(-c2ccccc2OC)no1 (configuration not stated) do in these assays?
GIV-Gai inh: 99; HCMV UL50-53 inh: -5

How did C=CCn1c(=O)[nH]c2nc3cc(N=CN(C)C)c(C)cc3nc2c1=O do in these assays?
GIV-Gai inh: -16*

How did C=CCn1c(=O)[nH]c2nc3cc(N=CN(C)C)ccc3nc2c1=O do in these assays?
GIV-Gai inh: 104; HCMV UL50-53 inh: -92

Screening data as filed in PubChem BioAssay.
